From PubChem BioAssay AID1222 (Sanford-Burnham Center for Chemical Genomics, 2008)
The list shows a part of the results. Measured potencies and affinities stand elsewhere. The source made the active and inactive calls.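 Rule for the calls: active = EC50 below 50 µM in the dose-response confirmation; inactive = the rest.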

Assay: protection against thapsigargin-triggered cell killing – 384-well, CSM14.1, ATP luminescence, primary screen (AID 1222);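 note: death triggered by thapsigargin at about 15 µM added after 2 h compound pretreatment; cell ATP read after overnight thapsigargin exposure of roughly 18 to 22 hours; reference of the scale not given here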
Conditions: CSM14.1 thapsigargin-induced death rescue, at 20 µM, active compounds read high

Compound	cellular ATP content (survival)
O=P(Nc1ccccn1)(c1cccc2ccccc12)c1cccc2ccccc12	inactive: -0.8%
Cc1cc(SC(NC=O)C(Cl)(Cl)Cl)ncn1 (stereo not given)	inactive: -1.7%
Cc1cc(SC(NC(=O)c2ccccc2)C(Cl)(Cl)Cl)nc(C(C)C)n1 (stereo not given)	inactive: -0.6%
CCC(C)N(CC(C)C)C(=S)SC(NC(C)=O)C(Cl)(Cl)Cl (stereo not given)	inactive: -3.2%
O=C(COc1ccccc1)OC1CN2CCC1CC2 (stereo not given)	inactive: -3.2%
COc1ccc(N/C(=N/P(=O)(N2CCOCC2)N2CCOCC2)N2CCOCC2)cc1	inactive: -0.9%
COc1ccc2nc(NP(=O)(c3ccccc3)c3ccccc3)sc2c1	inactive: -1.9%
Cc1cc(=O)[nH]c(N[N+](=O)[O-])n1	inactive: 0.6%
O=C(OC1CN2CCC1CC2)C12CC3CC(CC(C3)C1)C2 (stereo not given)	inactive: -1.1%
Cc1c2c(nc3ccccc13)SC(C(Cl)Cl)C2 (stereo not given)	inactive: 1.4%
O=[N+]([O-])c1cc([N+](=O)[O-])c(-c2ccn[nH]2)s1	inactive: -3%
CCN(CC)C(=S)SC(NC=O)C(Cl)(Cl)Cl (stereo not given)	inactive: 0.5%
CC(C)NC(=O)NP(=O)(Oc1ccccc1)Oc1ccccc1	inactive: -0.3%
ClCCSc1nnc(-c2cccnc2)o1	inactive: -0.6%
Cc1ccc2nc3c(c(C)c2c1)CC(C(Cl)Cl)S3 (stereo not given)	inactive: 0.1%
O=[N+]([O-])c1ccc2c(c1)nnn2O	inactive: -1.3%
CCOP1(=S)c2c(C)nn(CCC#N)c2N=C(c2ccc(F)cc2)N1C (stereo not given)	inactive: 0.4%
O=P(Nc1nccs1)(c1ccccc1)c1nc2ccccc2s1 (stereo not given)	inactive: 2.7%
O=P(Nc1nccs1)(Oc1ccccc1)Oc1ccccc1	inactive: -2.7%
CCOP1(=S)c2c(C)nn(CCC#N)c2N=C(c2ccccc2F)N1C (stereo not given)	inactive: 1.2%
CCOP(=O)(Nc1cccc2ccccc12)OCC	inactive: -1.3%
COc1cc(C2NCCC3(OCCO3)C2(C)C)cc(OC)c1OC (stereo not given)	inactive: -1.3%
Cc1ccc(NCCc2c([N+](=O)[O-])cc([N+](=O)[O-])cc2[N+](=O)[O-])cc1	inactive: -0.1%
Cc1cccc(OCC(=O)OC2CN3CCC2CC3)c1 (stereo not given)	inactive: 2.6%
CN(C(=O)Cc1ccc(Cl)c(Cl)c1)[C@@H]1CCCC[C@H]1N1CCCC1	inactive: -1.7%

Compound	cellular ATP content (survival)
Clc1n[nH]nc1-c1nn[nH][15n]1	inactive: -0.4%
O=P1(Nc2ccccn2)COc2ccccc2OC1	inactive: -0.6%
O=P1(Nc2ccc(Br)cn2)COc2ccccc2OC1	inactive: 1.3%
Cc1ccc(OCC(=O)OC2CN3CCC2CC3)cc1 (stereo not given)	inactive: -2.9%
O=P1(Nc2ncccn2)COc2ccccc2OC1	inactive: -5.3%
CC1CCC(C(C)C)C(OP(=O)(Nc2ccccn2)c2ccccc2)C1 (stereo not given)	inactive: 0.5%
Cc1nn(-c2ccccc2)c2c1P(=O)(N1CCOCC1)N(C)C(c1ccccc1)=N2 (stereo not given)	inactive: -1.3%
C(Cc1nn[nH]n1)Cc1nn[nH]n1	inactive: -2.8%
O=C(OC1CN2CCC1CC2)c1cccc(Cl)c1 (stereo not given)	inactive: 1.4%
CC(=O)NC(SC(=S)N(C)C)C(Cl)(Cl)Cl (stereo not given)	inactive: -0.8%
O=P(Nc1ccccn1)(c1ccc(Br)cc1)c1ccc(Br)cc1	inactive: -1.1%
c1nnnn1CCn1cnnn1	inactive: -3%
CC(C)C(=O)NC(Sc1ccccc1)C(Cl)(Cl)Cl (stereo not given)	inactive: -1.9%
O=P(Nc1nccs1)(c1ccccc1)c1ccccc1	inactive: -2.1%
CC(=O)Nc1ccc(Oc2c([N+](=O)[O-])cc([N+](=O)[O-])cc2[N+](=O)[O-])cc1	inactive: -0.1%
CC(C)(C)C(=O)NC(Sc1ccccc1)C(Cl)(Cl)Cl (stereo not given)	inactive: -6%
CCOc1ccc(C2=NCC(CBr)S2)cc1 (stereo not given)	inactive: 2.3%
O=P1(Nc2nc3ccc(Cl)cc3s2)COc2ccccc2O1 (stereo not given)	inactive: -0.8%
O=c1c2cc([N+](=O)[O-])ccc2[nH]c2c([N+](=O)[O-])cc([N+](=O)[O-])cc12	inactive: 4.6%
CC(=O)NC(SC(=S)N(CC(C)C)CC(C)C)C(Cl)(Cl)Cl (stereo not given)	inactive: -3.3%
Cc1ccc(OP(=O)(Nc2ccccn2)Oc2ccc(C)cc2)cc1	inactive: 3.1%
COC(=O)c1cc2c(s1)N=C(c1ccccc1)N(C)P2(=O)N1CCOCC1 (stereo not given)	inactive: -0.1%
CCC(=O)N1C2C3N(C(=O)CC)C1C1N(C(=O)CC)C(C(N1C(=O)CC)N3C(=O)CC)N2C(=O)CC	inactive: 1.4%
CCNC(=S)/N=C(\N)N[N+](=O)[O-]	inactive: 0.1%
O=C(NC1CCS(=O)(=O)C1)NP(=S)(Oc1ccccc1)Oc1ccccc1 (stereo not given)	inactive: -0.3%

Compound	cellular ATP content (survival)
CCOC(=O)NC(Sc1ccccc1)C(Cl)(Cl)Cl (stereo not given)	inactive: -1.7%
c1ccc(-c2nn[nH]n2)c(-c2nn[nH]n2)c1	inactive: -1.8%
CCN(N=Nc1nonc1N)c1nonc1N	inactive: 0.2%
CCOP(=O)(Nc1ccccc1)OCC	inactive: 3.3%
Cc1cc(SC(NC(=O)c2ccc(F)cc2)C(Cl)(Cl)Cl)ncn1 (stereo not given)	inactive: -0.8%
CC(C)CC(=O)NC(Sc1ccc(Cl)cc1)C(Cl)(Cl)Cl (stereo not given)	inactive: -0.1%
Cc1c2non([O-])c-2c(C)[n+](=O)[n+]1[O-]	inactive: -7.8%
O=C(NC(Sc1ccncn1)C(Cl)(Cl)Cl)c1ccccc1 (stereo not given)	inactive: 1.9%
Oc1ccccc1CNc1ccccn1	inactive: -1.1%
COc1ccccc1OP(=O)(Nc1ccc(C)cn1)Oc1ccccc1OC	inactive: -0.2%
Clc1ccc(Cl)c(NC2=NCC(CBr)S2)c1 (stereo not given)	inactive: -0.3%
CN1CCCC(OC(=O)C(c2ccccc2)c2ccccc2)C1 (stereo not given)	inactive: -0.8%
NC(=O)c1cc([N+](=O)[O-])cc([N+](=O)[O-])c1N	inactive: -1.9%
Cc1ccc(N/C(=N/P(=O)(N2CCOCC2)N2CCOCC2)N2CCOCC2)cc1	inactive: 0.5%
CN(C)C(=O)OCCc1n(C)cc[n+]1C	inactive: -2.6%
CC(C)=N/N=C(\N)N[N+](=O)[O-]	inactive: -1%
CC1CCN(C(=O)Oc2c(Cl)cc(Cl)c3cccnc23)CC1	inactive: -0.8%
CCN(/C(=N/P(=O)(N1CCOCC1)N1CCOCC1)N1CCOCC1)c1ccc(OC)cc1	inactive: -0.2%
O=[N+]([O-])c1cccc2n[nH]nc12	inactive: -2.9%
CC(=O)N1C2C3N(C(C)=O)C1C1N(C(C)=O)C(C(N1C(C)=O)N3C(C)=O)N2C(C)=O	inactive: -0.8%
CCc1nc2c(n1)c1c(non1O)c1c2no[n+]1[O-]	inactive: 0%
O=[N+]([O-])c1cc([N+](=O)[O-])c(CCNc2ccccc2)c([N+](=O)[O-])c1	inactive: -0.6%
Cc1ccc(NP(=O)(Oc2ccccc2)Oc2ccccc2)nc1	inactive: -0.9%
COc1ccc(C2=NCC(CBr)S2)cc1 (stereo not given)	inactive: 1.7%
O=[N+]([O-])c1ncn(CCn2ncnc2[N+](=O)[O-])n1	inactive: -0.8%
